Data taken from PMC11407402.

Chains of the proteins cited; added tags and fusions are not shown. Residues count along the entry.
UniProt P02745, 23-245: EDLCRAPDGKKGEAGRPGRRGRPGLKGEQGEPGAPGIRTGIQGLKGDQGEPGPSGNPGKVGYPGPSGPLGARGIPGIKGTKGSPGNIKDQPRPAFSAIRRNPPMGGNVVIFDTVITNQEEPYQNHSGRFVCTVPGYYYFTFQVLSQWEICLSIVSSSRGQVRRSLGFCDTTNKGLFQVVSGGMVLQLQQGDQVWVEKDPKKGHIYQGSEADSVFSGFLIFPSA
UniProt P02746, 28-253: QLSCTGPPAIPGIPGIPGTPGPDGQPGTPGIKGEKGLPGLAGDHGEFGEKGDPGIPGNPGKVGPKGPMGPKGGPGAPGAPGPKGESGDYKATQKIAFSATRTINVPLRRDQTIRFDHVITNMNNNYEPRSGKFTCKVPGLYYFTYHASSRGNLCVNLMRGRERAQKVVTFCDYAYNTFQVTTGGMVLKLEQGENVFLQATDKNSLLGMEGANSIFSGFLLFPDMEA
UniProt P02747, 29-245: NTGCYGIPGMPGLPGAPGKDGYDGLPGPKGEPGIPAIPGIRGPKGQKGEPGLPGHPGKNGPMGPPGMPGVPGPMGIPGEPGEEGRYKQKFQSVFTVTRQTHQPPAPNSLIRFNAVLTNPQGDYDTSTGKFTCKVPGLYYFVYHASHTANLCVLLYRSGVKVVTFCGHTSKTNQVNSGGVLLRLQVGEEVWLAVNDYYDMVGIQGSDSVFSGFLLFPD

Key:
[1] = biological target: anti-CD20 antibody (rituximab V regions), wild-type human IgG1 (human); test: ELISA
[2] = biological target: anti-CD20 antibody (rituximab V regions), wild-type human IgG3 (with R435H) (human); test: ELISA

mean absorbance [1]: 0.579
mean absorbance [2]: 2.97
Substance: human C1q, coupled to horseradish peroxidase (from UniProt P02745;P02746;P02747) (complex)
